Screening results: PubChem, National Center for Advancing Translational Sciences (NCATS)
gsp agonist = activates gsp, the McCune-Albright syndrome mutation. gsp mutant cells, cAMP HTRF, 30 min. Potency, µM (series often up to 76.9 µM), most hits filed as activators. 340,000 tested, 0.13% active. AID 624287; active = well fitted activation curve with a large enough effect; inconclusive = small, poorly fitted or top-dose-only effect, or another doubt; inactive = no such curve, though single readings can be large or run the other way; cell line not stated here;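 note: phosphodiesterase inhibitor Ro 20-1724 added with compounds to block cAMP breakdown; nearly all actives have a fitted effect of over 60% in size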
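Cells stably selected in G418 were plated at 2000/well, grown 16-24 hr, then given compounds in DMSO with the PDE inhibitor […] (300 uM solution added) for 30 min at 37C; cAMP was read by HTRF.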
RXFP1 antag = RXFP1 (human) relaxin receptor antagonism. Q9HBX9. activity change, negative = inhibition, % at 57.5 µM. HEK293-RXFP1, relaxin-stimulated cAMP HTRF, 30 min; hits give low values. 350,000 tested, 0.59% active;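 active = activity change of -60% or lower, but not beyond a set lower limit; inconclusive = change between -60% and -40%, or beyond the set limit; inactive = change above -40%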
Luc counter = blocks Kinase-Glo luciferase, a counter-screen artifact; Potency, µM (series often up to 38.3 µM), most hits filed as inhibitors; Kinase-Glo luciferase, ATP luminescence, 8 min; 200,000 tested, 0.28% active; Q27757; AID 1379; note: nearly all actives have a fitted effect of over 60% in size
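Substrate mix (final 50 mM imidazole pH 7.2, 50 mM KCl, 7 mM MgCl2, 10 uM ATP, 0.01% Tween 20, 0.05% BSA) plus pin-tool compound, then Kinase-Glo detection mix; 8 min ambient, luminescence read.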
RXFP1 agonist = activates the human relaxin receptor RXFP1; Potency, µM (titrated, usually from 57.5 µM), hits mostly activators; AID 2676; Q9HBX9; 370,000 tested, 0.3% active; HEK293T-RXFP1 cAMP TR-FRET, 30 min; response scale: percent of porcine relaxin response, buffer zero; note: nearly all actives have a fitted effect of over 60% in size
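HEK293T cells stably expressing RXFP1 were pretreated with the PDE4 inhibitor Ro 20174, exposed to compounds for 30 min at 37C, lysed, and cAMP was read by TR-FRET. Data normalized to buffer (basal) and 29 nM porcine relaxin (100%).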
gsp antagonist = antagonists of gsp mutant (McCune-Albright syndrome). gsp-mutant cells, cAMP HTRF, 30 min. Potency, µM (series often up to 76.9 µM), usual class: inhibitors. 340,000 tested, 0.4% active; calls by dose curve; cell line not stated here;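 note: intracellular cAMP measured with PDE inhibitor Ro 20-1724 present during compound exposure; nearly all actives have a fitted effect of over 65% in size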
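Cells, 2000/well, grown 16–24 h in DMEM 10% FBS with 0.5 mg/ml G418, then compounds plus […] (300 uM addition stock), 30 min at 37C. cAMP read by HTRF (cAMP-d2 and anti-cAMP antibody-K in lysis buffer) after 30 min RT.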
miR-21 reporter = raises the signal of a miR-21 reporter; Potency, µM (doses to about 38.3 µM); HeLa miR-21 FLuc reporter, luciferase, 48 h; AID 2288; 340,000 tested, under 10 active; active = well fitted rising curve with a large enough effect; inconclusive = small, poorly fitted or top-dose-only effect; inactive = no such curve, though single readings can be large or run the other way;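 further: miR-21 action dims this reporter so a rising signal means less miR-21 action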
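Compounds were titrated across several concentrations (up to approximately 40 uM) and incubated 48 hours with HeLa miR-21-FLuc reporter cells (miR-21 target sequence downstream of FLuc, endogenous miR-21). Readout was firefly luciferase luminescence after lytic detection reagent.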
A number is an active result; . = inactive; ? = inconclusive; / = no result given; ! = not confirmed by another sample; [ ] = dose if it differs, or a comment. Shown are actives, neighbours in structure and some others; about 1% of the full set was active somewhere. Unless noted, calls come from the whole dose curve; as a rule, active = well fitted curve in the direction sought with a large enough effect; inconclusive = small, poorly fitted or top-dose-only effect, or another doubt; inactive = no such curve, though single readings can be large; an effect the other way counts as inactive or inconclusive.

SMILES | gsp agonist | RXFP1 antag | Luc counter | RXFP1 agonist | gsp antagonist | miR-21 reporter
CCOc1ccccc1C(=O)Nc1ccc(NC(=O)c2ccccc2)cc1 | . | . | / | . | . | .
O=C(NNC(=O)c1ccc(NC(=O)c2ccccc2)cc1)c1ccc(F)cc1 | . | . | / | . | . | .
COc1ccc(C)cc1NC(=O)N1CCC(CN2CCOCC2)CC1 | / | . | / | . | / | .
Cc1ccc(C)c(NS(=O)(=O)c2ccc3c(c2)CCCN3C(=O)C2CCC2)c1 | / | -63 | / | . | / | .
CCN(CC)C(=O)C1CCN(S(=O)(=O)c2ccc3c(c2)CCCN3C(=O)C2CCC2)CC1 | . | -79 | / | . | . | .
CC(=O)N1CCCc2cc(S(=O)(=O)N3CCCC(C(=O)N4CCN(c5ccccc5)CC4)C3)ccc21 (stereo not drawn) | . | . | / | . | 35µM | ?
CCN(CC)C(=O)C1CCN(S(=O)(=O)c2ccc3c(c2)CCCN3C(C)=O)CC1 | / | . | / | . | / | .
COc1ccc(/C=C/C(=O)N2CCC(c3nc4ccccc4o3)CC2)cc1OC | / | ? | / | . | / | .
Cc1nc2n(c(=O)c1CCN1CCC(c3noc4cc(F)ccc34)CC1)CCC[C@H]2O | / | . | / | / | / | /
O=C(CCC1N=C2c3ccccc3N=C(SCC(=O)NCC3CCCO3)N2C1=O)NCc1ccc(F)cc1 (stereo not drawn) | ? | -69 | / | . | . | .
COc1ccc(CNC(=O)CCC2N=C3c4ccccc4N=C(SCC(=O)NCC4CCCO4)N3C2=O)cc1 (stereo not drawn) | ? | . | / | . | . | .
CC(=O)O[C@H]1CC[C@@]2(C)C(=CC[C@@H]3[C@@H]2CC[C@]2(C)C(C(C)=O)=CC[C@@H]32)C1 | / | . | / | / | / | /
COc1ccc([N+](=O)[O-])c(C=CC(=O)c2ccccn2)c1 | . | . | / | / | / | /
COc1ccc(C(=O)NNC(=O)c2ccccn2)cc1 | . | . | 0.63µM | . | . | ?
COc1cc(OC)cc(C(=O)NNC(=O)c2ccccn2)c1 | .[15.4 µM] | -94 | . | . | . | .
COc1ccc(/C=C/C(=O)c2ccccn2)cc1 | . | . | 4µM | . | . | .
CC[C@@H]([C@H](C)O)n1ncn(-c2ccc(N3CCN(c4ccc(OC[C@@H]5CO[C@@](Cn6cncn6)(c6ccc(F)cc6F)C5)cc4)CC3)cc2)c1=O | / | . | / | / | / | /
Cc1ccc(Cl)cc1N1CCN(C(=O)c2c(C)oc3ncnc(N4CCCCC4)c23)CC1 | / | / | / | . | / | .
CC(=O)N1CCC(=NNC(=O)c2cc3ccccc3cc2O)CC1 | . | -93 | / | . | ? | .
CCOC(=O)N1CCC(=NNC(=O)c2cc3ccccc3cc2O)CC1 | . | . | . | . | . | .
CCc1nc2ccccc2n1CC(=O)N1CCN(S(=O)(=O)c2cccc(C(F)(F)F)c2)CC1 | . | . | . | . | . | .
O=C(c1cc(Cl)nc2ccccc12)N1CCN(S(=O)(=O)c2cccc(C(F)(F)F)c2)CC1 | .[15.4 µM] | -77 | / | . | . | /
CCCc1cc(=O)[nH]c(Nc2ccc(C)c(O)c2)n1 | / | . | / | . | / | .
O=C(NCCCN1CCCC1)[C@H](CSCc1ccccc1)N1Cc2ccccc2C1=O | .[15.4 µM] | -60 | / | . | . | .
Cc1ccc(-n2[nH]c(C)c(/C=N/Nc3ccc([N+](=O)[O-])cc3[N+](=O)[O-])c2=O)cc1 | ? | -74 | ? | . | 32µM | .
SMILES | gsp agonist | RXFP1 antag | Luc counter | RXFP1 agonist | gsp antagonist | miR-21 reporter
CC(=O)c1ccc(NC(=O)C2=CC(c3ccc(C)cc3)=NS(=O)(=O)N2C)cc1 | / | . | / | . | / | .
Cc1ccc2c(c1)-c1nc(-c3ccc4c(c3)NC(=O)CO4)cc(-c3ccccc3)c1CO2 | / | / | / | . | / | .
CCC(C)NC(=O)CN1C(=O)c2cccnc2Sc2ccccc21 (stereo not drawn) | / | . | / | . | / | .
CCCCN(CC)CCNC(=O)c1cc2c(-c3ccc(Cl)cc3)nn(C)c2s1 | ? | -104! | / | . | . | ?
O=[N+]([O-])c1ccc(C=NNC(=S)Nc2ccc(F)cc2)cc1 | . | . | / | / | . | /
O=[N+]([O-])c1ccc(C=NNC(=S)NN=Cc2ccc([N+](=O)[O-])cc2)cc1 | . | -62 | / | / | . | /
Cc1nn(CC(=O)N2CCN(c3cccc(C(F)(F)F)c3)CC2)c(=O)c2cccn12 | ? | . | / | 35µM! | . | .
O=[N+]([O-])c1cc(CN2CCOCC2)c2cccnc2c1O | .[15.4 µM] | -102 | . | . | . | .
CC(=O)Nc1cccc(-c2csc(Nc3ccc(C)cn3)n2)c1 | . | -60 | . | . | . | .
CC(=O)c1cccc(NC(=O)c2nc3ccccc3n(C)c2=O)c1 | / | . | / | 16µM | / | .
Cc1ccc(C(=O)Nc2scc(-c3ccccc3)c2C(=O)O)cc1 | .[15.4 µM] | . | / | / | . | /
CC(C)(C)C(=O)Nc1scc(-c2ccc(-c3ccccc3)cc2)c1C(=O)O | . | . | / | . | 35µM | ?
CCN(C(=O)c1ccc2c(c1)N(Cc1cccc(Cl)c1)C(=O)c1ccccc1S2=O)c1ccccc1 (stereo not drawn) | / | . | / | . | / | ?
Cc1cccc(OCC(O)CNC(C)(C)C)c1C (stereo not drawn) | / | . | / | / | / | /
CC1=C(C(=O)Nc2cc(C(=O)N3CCN(c4cccc(C)c4C)CC3)ccc2C)SCCO1 | . | ? | / | . | 50µM | .
CCNC1=C(Cl)C(=O)c2ccccc2C1=O | . | . | . | . | . | .
CCCC(=O)NC1=C(Cl)C(=O)c2ccccc2C1=O | . | ? | / | / | 45µM | /
COc1cccc(OC)c1NC(=O)C1CCCN1C(=O)Nc1cccc(Cl)c1 (stereo not drawn) | . | -63 | / | . | . | .
COc1cccc(NC(=O)C2CCCN2C(=O)Nc2ccccc2)c1 (stereo not drawn) | .[15.4 µM] | . | / | . | . | .
O=[N+]([O-])c1cc(-c2nc(-c3ccccc3)no2)ccc1N1CCCCC1 | / | / | / | . | / | .
Cc1cccc(N2CCN(C(=O)c3nn(C)c4c3CSc3ccccc3-4)CC2C)c1 (stereo not drawn) | / | . | / | . | / | .
Cc1cccc(N2CCN(C(=O)c3nn(C)c4c3CS(=O)(=O)c3ccccc3-4)CC2C)c1 (stereo not drawn) | . | . | / | . | 35µM | .
CC(C)(C)c1ccc(C(=O)NCC(c2cccnc2)N2CCc3ccccc3C2)cc1 (stereo not drawn) | / | -77 | / | . | / | .
COCCNCCOc1ccc(C)cc1[N+](=O)[O-] | . | . | / | . | 50µM | .
CCC(=O)N1CCc2cc(S(=O)(=O)CCC(=O)N3CCN(c4cccc(C)c4)C(C)C3)ccc21 (stereo not drawn) | / | / | / | . | / | .
Cc1csc(C(C#N)C(=O)c2cc3ccccc3o2)n1 (stereo not drawn) | . | . | . | . | 25µM | .
Cc1csc(NC(=O)c2cc3ccccc3o2)n1 | . | . | / | . | . | /
